Drawing on PubChem BioAssay AID485347 (National Center for Advancing Translational Sciences (NCATS), 2010), this text covers potentiation for 76 compounds.

Sequences of proteins named here, by UniProt entry; tags and fusion partners are left off.
UniProt P14416, whole entry: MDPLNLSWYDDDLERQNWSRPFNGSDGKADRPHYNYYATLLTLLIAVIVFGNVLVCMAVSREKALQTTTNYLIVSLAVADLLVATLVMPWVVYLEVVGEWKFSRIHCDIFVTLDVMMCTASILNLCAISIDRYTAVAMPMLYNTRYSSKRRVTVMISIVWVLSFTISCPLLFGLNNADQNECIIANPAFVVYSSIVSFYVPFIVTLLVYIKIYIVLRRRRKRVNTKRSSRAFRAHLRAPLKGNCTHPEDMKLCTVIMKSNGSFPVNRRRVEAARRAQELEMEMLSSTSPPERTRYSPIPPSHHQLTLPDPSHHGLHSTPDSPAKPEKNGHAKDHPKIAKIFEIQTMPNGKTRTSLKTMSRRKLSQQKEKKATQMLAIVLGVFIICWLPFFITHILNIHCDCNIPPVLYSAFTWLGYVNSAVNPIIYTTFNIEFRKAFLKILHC

The list shows a part of the results, in another mix than the full data. The source made the active and inactive calls.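 The calls were made as follows: active = potentiation over 3 SD above the plate norm (cut at about 30% in these data); inactive = the rest.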

The target in the test is D(2) dopamine receptor (Homo sapiens) (UniProt P14416). In words: HTS Assay for Positive Allosteric Modulators of the Human D2 Dopamine Receptor: Primary Screen for Potentiators. Also: 0% is about no effect. Conditions: HEK293 T-REx D2, calcium flux, EC20 dopamine potentiation; at 10 µM; hits give high values. From the text: NIH Chemical Genomics Center [NCGC] NIH Molecular Libraries Probe Centers Network [MLPCN] MLPCN Grant: NS064831-01 Assay Submitter (PI): David Sibley Dopamine receptors (DARs) are involved in the etiology and/or therapy of a number of neuropsychiatric and endocrine disorders. For instance, all receptor-based antiparkinsonian drugs work via stimulating the D2 DAR subtype whereas all FDA-approved antipsychotic agents are antagonists of this receptor. […] There are three different types of allosteric modulators that we are seeking, two of which will stimulate or augment receptor signaling, allosteric agonists and potentiators, while the third, allosteric antagonists, will attenuate receptor signaling. The present primary screening assay measures compound potentiation of an EC20 dopamine response by tracking calcium flux in a […], inducible Hek293 Trex D2 cell line.
Freshly passaged cells are plated in 1536 well black, clear bottom plates at a density of 4000 cells/well in 3 ul of complete media containing 1x tetracycline inducer. After an overnight incubation at 30 C in 5% CO2, cells are loaded with 2 ul of the no wash Calcium Assay Kit (ABD Bioquest) and incubated at room temperature for 30 to 90 minutes. A 10 cycle (1 second/cycle) baseline measurement is taken and then the FDSS online 1536 pintool delivers 23 nl of compound library (as well as dopamine controls) to the plate. The plate is measured for kinetically at 1 cycle/sec for 180 seconds and is considered to be the agonist portion of the assay (eg, compounds which activate a positive calcium response during this portion are flagged as potential agonists). Following the 180 second read, 1 ul of an EC20 of dopamine is delivered by an onboard pipette head. Measurements are taken kinetically for an additional 180 seconds.
Turning to `COc1ccccc1OP(C)(=O)Nc1ccc(Br)cc1` (stereo unspecified), the potentiation was inactive: -7.65%. For `CN(C)CCOC(=O)C(O)(c1ccccc1)C1CCCC1` (stereo unspecified) the value was inactive: -20.1%; for `COc1ccc(OP(C)(=O)Nc2ccccn2)cc1` (stereo unspecified), inactive: -9.84%; for `Cc1c(NP(C)(=O)Oc2ccc(C(C)C)cc2)c(=O)n(-c2ccccc2)n1C` (stereo unspecified), inactive: 11.8%.

On to `O=[N+]([O-])c1cc([N+](=O)[O-])c(Nc2ccccn2)c([N+](=O)[O-])c1`, for which the potentiation is inactive: 4.04%. Consider `CCc1ccc(OP(C)(=O)O)cc1`, for which the potentiation is inactive: -6.05%. In the case of `CP(=O)(Nc1ccccn1)Oc1ccccc1` (stereo unspecified) it was inactive: 11.1%; in that of `COc1ccccc1OP(C)(=O)Nc1ccc(C)cc1C` (stereo unspecified), inactive: -2.22%; in that of `Cc1cc(C)cc(OP(C)(=O)Nc2cccc(C(F)(F)F)c2)c1` (stereo unspecified), inactive: -5.73%. On to `COc1ccc(OP(C)(=O)Nc2ccccc2Br)cc1` (stereo unspecified), for which the potentiation was inactive: 7.77%. For `COc1ccccc1OP(C)(=O)Nc1ccc(C)c(C)c1` (stereo unspecified) the value was inactive: 4.03%. For `Cc1nc2ccc3ccccc3c2o1.O=[N+]([O-])c1cc([N+](=O)[O-])c(O)c([N+](=O)[O-])c1` the value was inactive: 7.03%. `CP(=O)(Nc1ccc(Cl)cc1Cl)Oc1ccccc1` (stereo unspecified): the potentiation was inactive: 0.875%. Take `CP(=O)(OCCOc1ccccc1)OCCOc1ccccc1`: the potentiation was inactive: 6.13%. For `CP(=O)(OC12CC3CC(CC(C3)C1)C2)OC12CC3CC(CC(C3)C1)C2` the value was inactive: 2.51%; for `CCOC(=O)c1ccc(NP(C)(=O)Oc2ccc(Cl)cc2)cc1` (stereo unspecified), inactive: -7.19%. In the case of `CCN(CC)CC(O)COC(=O)C(O)(c1ccccc1)C1CCCCC1` (stereo unspecified), the potentiation is inactive: 5.1%.

For `COc1ccc(OP(C)(=O)Nc2ccc(Br)cc2)cc1` (stereo unspecified), the potentiation is inactive: 4.39%. In the case of `CP(=O)(Oc1ccccc1)N1CCOC1=O` (stereo unspecified) it was inactive: 2.06%. In the case of `CCc1ccc(OP(C)(=O)Nc2cccnc2)cc1` (stereo unspecified) it was inactive: 23.7%. For `COc1ccccc1OP(C)(=O)Nc1c(C)n(C)n(-c2ccccc2)c1=O` (stereo unspecified) the value was inactive: 10.7%; for `O=C(OCCCN1CCCC1)C(O)(c1ccccc1)C1CCCCC1` (stereo unspecified), inactive: 9.15%.

With `CP(=O)(Nc1ccc(Cl)cc1)Oc1ccc(F)cc1` (stereo unspecified), the potentiation was inactive: 9.38%. For `COc1ccccc1OP(C)(=O)Nc1ccccc1Br` (stereo unspecified) the value was inactive: 0.814%. Regarding `CC(C)(C)c1ccc(OP(C)(=O)O)cc1`, the potentiation is inactive: -9.47%. `CP(=O)(Nc1ccc(SC(F)(F)F)cc1)Oc1ccc(F)cc1` (stereo unspecified): the potentiation was inactive: 6.7%. Regarding `CP(=O)(Nc1ccc2c(c1)OCCO2)Oc1ccccc1` (stereo unspecified), the potentiation was inactive: -22.8%.

For `Cc1ccccc1NP(C)(=O)Nc1ccccc1C`, the potentiation is inactive: 10.6%. Turning to `COc1ccc(OP(C)(=O)Nc2cccc(Br)c2)cc1` (stereo unspecified), the potentiation was inactive: 1.99%. For `COc1ccc(NP(C)(=O)Oc2ccccc2OC)cc1` (stereo unspecified) the value was inactive: 26.2%; for `CN(C)CCOC(=O)C(O)(c1ccccc1)C1CCCCC1` (stereo unspecified), inactive: -21%; for `Cc1cc(-c2cccc3ccccc23)c(C)cn1.O=[N+]([O-])c1cc([N+](=O)[O-])c(O)c([N+](=O)[O-])c1`, inactive: -8.15%. `O=[N+]([O-])c1ccc(OP2(=O)COCCO2)cc1` (stereo unspecified): the potentiation is inactive: 7.81%. For `COc1ccc(OP(C)(=O)Nc2ccc(SC(F)(F)F)cc2)cc1` (stereo unspecified) the value was inactive: 7.71%.

Turning to `CCOC(=O)c1ccc(NP(C)(=O)Oc2ccc(F)cc2)cc1` (stereo unspecified), the potentiation is inactive: -5.52%. For `CCCCCOc1ccc(NP(C)(=O)Oc2ccc(Cl)cc2Cl)cc1` (stereo unspecified) the value was inactive: -0.955%; for `CP(=O)(Nc1ccccc1)Oc1ccc(F)cc1` (stereo unspecified), inactive: 0.457%; for `CC(C)c1ccc(OP(C)(=O)Nc2ccc(SC(F)(F)F)cc2)cc1` (stereo unspecified), inactive: 11.1%. For `CP(=O)(Nc1ccccc1F)Oc1ccccc1` (stereo unspecified), the potentiation is inactive: 3.59%. For `O=C(OCCN1CCN(CCOCc2ccccc2)CC1)C(O)(c1ccccc1)c1ccccc1` the value was inactive: -18.2%.

Regarding `COc1ccccc1OP(C)(=O)Nc1cccc(Br)c1` (stereo unspecified), the potentiation was inactive: -4.48%. For `Cc1cc(C)cc(OP(C)(=O)Nc2ccc(C)cc2C)c1` (stereo unspecified) the value was inactive: -3.89%; for `CCOC(=O)c1ccc(NP(C)(=O)Oc2cc(C)cc(C)c2)cc1` (stereo unspecified), inactive: -25.1%; for `Cc1cc(C)cc(OP(C)(=O)Nc2ccccn2)c1` (stereo unspecified), inactive: -6.09%. With `CP(=O)(Nc1cccc(Br)c1)Oc1ccccc1` (stereo unspecified), the potentiation is inactive: 8.33%. For `Cc1ccc(C)c(NP(C)(=O)Oc2ccccc2)c1` (stereo unspecified) the value was inactive: 0.321%. For `CC1=NCCc2c1[nH]c1ccccc21.O=[N+]([O-])c1cc([N+](=O)[O-])c(O)c([N+](=O)[O-])c1` the value was inactive: -8.41%; for `CC1=C2N=C(C=C3N=C(C(C)=C4[N-][C@@](C)([C@@H]5N=C1[C@](C)(CCC(=O)NC[C@@H](C)OP(=O)([O-])O[C@H]1[C@@H](O)[C@@H](n6cnc7cc(C)c(C)cc76)O[C@@H]1CO)[C@H]5CC(N)=O)[C@@](C)(CC(N)=O)[C@@H]4CCC(N)=O)[C@@](C)(CC(N)=O)[C@@H]3CCC(N)=O)C(C)(C)[C@@H]2CCC(N)=O.[C-]#N.[Co+3]`, inactive: 4.42%; for `O=[N+]([O-])c1cc([N+](=O)[O-])c(Nc2nnnn2CCO)c([N+](=O)[O-])c1`, inactive: 13.8%. In the case of `CN1CCCCC1COC(=O)C1(O)c2ccccc2CCc2ccccc21` (stereo unspecified) it was inactive: 14.8%. For the compound `COc1ccccc1OP(C)(=O)Nc1c(C)cccc1C` (stereo unspecified), the potentiation was inactive: -0.945%. For `CP(=O)(Nc1ccc(SC(F)(F)F)cc1)Oc1ccccc1` (stereo unspecified), the potentiation was inactive: 16.6%. With `O=[N+]([O-])c1cc([N+](=O)[O-])c(-n2nnc3ccccc32)c([N+](=O)[O-])c1`, the potentiation is inactive: -1.59%. For the compound `Cc1nc2ccc3ccccc3c2s1.O=[N+]([O-])c1cc([N+](=O)[O-])c(O)c([N+](=O)[O-])c1`, the potentiation was inactive: -13.2%. For `CP(=O)(Nc1ccc(SC(F)(F)F)cc1)Oc1ccc(Cl)cc1` (stereo unspecified) the value was inactive: -7.31%; for `Cc1cccc(C)c1OP(C)(=O)Nc1ccc(SC(F)(F)F)cc1` (stereo unspecified), inactive: 3.69%; for `CP(=O)(Oc1ccccc1)OC(c1ccccc1)C(F)(F)F` (stereo unspecified), inactive: 13.5%.

`CP(=O)(NC(=O)Nc1ccccc1)Oc1ccccc1` (stereo unspecified): the potentiation is inactive: 5.8%. For `CCc1ccc(OP(C)(=O)N2CCN(c3ccc([N+](=O)[O-])cc3)CC2)cc1` (stereo unspecified) the value was inactive: 0.352%; for `Cc1cc(C)cc(OP(C)(=O)Nc2ccc(SC(F)(F)F)cc2)c1` (stereo unspecified), inactive: 3.91%; for `CCOP(C)(=S)SCC(=O)NC(C)C(=O)O` (stereo unspecified), inactive: -1.18%.

For `CCOC(=O)c1ccc(NP(C)(=O)Oc2ccc(OC)cc2)cc1` (stereo unspecified), the potentiation is inactive: 4.94%. For `CP(=O)(Nc1ccccn1)Oc1ccc(Cl)cc1` (stereo unspecified) the value was inactive: 0.994%; for `CP(=S)(Nn1cnnc1)Oc1ccccc1` (stereo unspecified), inactive: -1.29%. In the case of `COc1ccccc1OP(C)(=O)Nc1ccccc1` (stereo unspecified) it was inactive: 3.85%.

Turning to `CP(=O)(Nc1ccccc1Br)Oc1ccccc1` (stereo unspecified), the potentiation was inactive: -7.3%. For `O=[N+]([O-])c1cc([N+](=O)[O-])c(Nc2cccnc2)c([N+](=O)[O-])c1` the value was inactive: 9.83%; for `CC(C)(C)c1ccc(OP(C)(=O)Nc2ccc(SC(F)(F)F)cc2)cc1` (stereo unspecified), inactive: -3.79%; for `Cc1cccc(C)c1OP(C)(N)=O` (stereo unspecified), inactive: 10%.

Regarding `O=[N+]([O-])c1ccc2c(c1)C=Nc1ccccc1O2`, the potentiation was inactive: 3.98%. With `CCOC(=O)c1ccc(NP(C)(=O)Oc2ccccc2)cc1` (stereo unspecified), the potentiation was inactive: 0.987%. As to `COc1ccccc1OP(C)(=O)Nc1ccc(C)cc1` (stereo unspecified), the potentiation is inactive: 4.01%. In the case of `Cc1ccc(NP(C)(=O)Oc2ccccc2)c(C)c1` (stereo unspecified) it was inactive: -6.73%.

Regarding `COc1ccc(OP(C)(=O)Nc2cccc(F)c2)cc1` (stereo unspecified), the potentiation is inactive: -1.6%. With `Cc1cc(C)cc(OP(C)(N)=O)c1` (stereo unspecified), the potentiation was inactive: 9.08%. In the case of `CCN(CC)CCCOC(=O)C(O)(c1ccccc1)c1ccccc1`, the potentiation is inactive: -2.19%.
